The nature of the series: Stability in simulated gastric fluid (SGF). The format is in vitro ADME. The note with it: 37° C., analytical HPLC. How it is done: Nisin, mersacidin, compound I and compound III were tested for their susceptibility towards enzymatic digestion in the stomach. Nisin, mersacidin and compound III were tested for their susceptibility towards enzymatic digestion in the intestine. The SGF and SIF were based on the standard USP solutions for simulated gastric and simulated intestinal fluids and their activity confirmed against Bovine Serum Albumin (Hilger et al, Clin. Exp. Immunol. 2001, 123, 387-94). The compounds were incubated in SGF or SIF at 37° C. and their concentrations quantified by analytical HPLC (UV detection at 210 nm). The potential degradation of each compound was also monitored qualitatively by measuring in vitro antibacterial activity against Micrococcus luteus.

mersacidin [reference compound]: the “degradation in Simulated Gastric Fluid” value is “did not show appreciable degradation”.

Values taken from patent publication US8329644B2, “Lantibiotic-based compounds having antimicrobial activity” (Novacta Biosystems Limited, priority 2007, dated 2012).
